Measured values reported in patent US6531478B2, “Amino pyrazole derivatives useful for the treatment of obesity and other disorders” (priority 2000, dated 2003).

Protein sequences, listed by entry. Tags and fused reporters are not part of them.
UniProt Q15761, whole entry: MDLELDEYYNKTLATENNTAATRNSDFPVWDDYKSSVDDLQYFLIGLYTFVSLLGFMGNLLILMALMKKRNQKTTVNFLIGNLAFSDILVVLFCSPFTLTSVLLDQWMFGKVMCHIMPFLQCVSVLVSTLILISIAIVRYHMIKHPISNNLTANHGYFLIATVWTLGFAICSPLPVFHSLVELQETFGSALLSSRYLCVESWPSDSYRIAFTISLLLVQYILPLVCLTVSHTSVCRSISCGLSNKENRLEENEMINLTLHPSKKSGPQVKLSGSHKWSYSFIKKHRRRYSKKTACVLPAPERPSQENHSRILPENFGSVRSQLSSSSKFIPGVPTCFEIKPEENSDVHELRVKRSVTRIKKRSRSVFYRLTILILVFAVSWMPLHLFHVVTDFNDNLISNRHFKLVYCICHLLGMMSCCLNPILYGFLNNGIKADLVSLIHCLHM

Target: human neuropeptide Y5 receptor (Homo sapiens, UniProt Q15761)
Assay: NPY5 HTS centrifugation assay: competition with 125I-PYY for binding to membranes of NPY5-transfected HEK-293 cells
Settings: read-out: IC50 hNPY5; inhibition of 125I-PYY binding; values in nM
Protocol: NPY5 HTS Centrifugation Assay
The compounds described in this invention were evaluated for binding to the human neuropeptide Y5 receptor.
The human NPY5 receptor cDNA (Genbank Accession number U66275) was inserted into the vector pClneo (Invitrogen) and transfected into human embryonic kidney cells (HEK-293) via Calcium phosphate method (Cullen 1987). Stably transfected cells were selected with G-418 (600 ug/mL). Stably transfected cells served as the source for the membranes for the NPY5 receptor binding assay.
NPY5-transfected HEK293 cells were grown to confluence in 150 cm^2 culture dishes. Cells were washed once with phosphate-buffered saline (Gibco Cat# 14040-133). […]
A competition binding assay, known to those skilled in the art, was used in which the test compounds (aminopyrazoles of formula (I) compete with ^1251I-PYY for binding to cell membranes. In simple terms, less ^125I-PYY bound to the membranes implies that the test compound is a good inhibitor (competitor). Bound ^1251I-PYY is determined by centrifugation the membranes, aspirating supernatant, washing away residual ^125I-PYY and subsequently counting the bound sample in a γ-counter. […]
Compounds to be tested were prepared as 10× stocks in binding buffer and added first to assay tubes (RIA vials, Sarstedt). […] Vials were put in carrier polypropylene 12×75 tube and counted in gamma counter (Packard). […]

IC50: 114 nM
SMILES: Nc1cc(-c2ccc(CNS(=O)(=O)c3ccccc3)cc2)nn1-c1cccc(C(F)(F)F)c1
